Results from patent US9051270B2, “Pyridone amides as modulators of sodium channels” (Vertex Pharmaceuticals Incorporated, priority 2013, dated 2015).

By UniProt entry, the sequences of proteins in these tests, tags left out.
UniProt Q9Y5Y9, whole entry: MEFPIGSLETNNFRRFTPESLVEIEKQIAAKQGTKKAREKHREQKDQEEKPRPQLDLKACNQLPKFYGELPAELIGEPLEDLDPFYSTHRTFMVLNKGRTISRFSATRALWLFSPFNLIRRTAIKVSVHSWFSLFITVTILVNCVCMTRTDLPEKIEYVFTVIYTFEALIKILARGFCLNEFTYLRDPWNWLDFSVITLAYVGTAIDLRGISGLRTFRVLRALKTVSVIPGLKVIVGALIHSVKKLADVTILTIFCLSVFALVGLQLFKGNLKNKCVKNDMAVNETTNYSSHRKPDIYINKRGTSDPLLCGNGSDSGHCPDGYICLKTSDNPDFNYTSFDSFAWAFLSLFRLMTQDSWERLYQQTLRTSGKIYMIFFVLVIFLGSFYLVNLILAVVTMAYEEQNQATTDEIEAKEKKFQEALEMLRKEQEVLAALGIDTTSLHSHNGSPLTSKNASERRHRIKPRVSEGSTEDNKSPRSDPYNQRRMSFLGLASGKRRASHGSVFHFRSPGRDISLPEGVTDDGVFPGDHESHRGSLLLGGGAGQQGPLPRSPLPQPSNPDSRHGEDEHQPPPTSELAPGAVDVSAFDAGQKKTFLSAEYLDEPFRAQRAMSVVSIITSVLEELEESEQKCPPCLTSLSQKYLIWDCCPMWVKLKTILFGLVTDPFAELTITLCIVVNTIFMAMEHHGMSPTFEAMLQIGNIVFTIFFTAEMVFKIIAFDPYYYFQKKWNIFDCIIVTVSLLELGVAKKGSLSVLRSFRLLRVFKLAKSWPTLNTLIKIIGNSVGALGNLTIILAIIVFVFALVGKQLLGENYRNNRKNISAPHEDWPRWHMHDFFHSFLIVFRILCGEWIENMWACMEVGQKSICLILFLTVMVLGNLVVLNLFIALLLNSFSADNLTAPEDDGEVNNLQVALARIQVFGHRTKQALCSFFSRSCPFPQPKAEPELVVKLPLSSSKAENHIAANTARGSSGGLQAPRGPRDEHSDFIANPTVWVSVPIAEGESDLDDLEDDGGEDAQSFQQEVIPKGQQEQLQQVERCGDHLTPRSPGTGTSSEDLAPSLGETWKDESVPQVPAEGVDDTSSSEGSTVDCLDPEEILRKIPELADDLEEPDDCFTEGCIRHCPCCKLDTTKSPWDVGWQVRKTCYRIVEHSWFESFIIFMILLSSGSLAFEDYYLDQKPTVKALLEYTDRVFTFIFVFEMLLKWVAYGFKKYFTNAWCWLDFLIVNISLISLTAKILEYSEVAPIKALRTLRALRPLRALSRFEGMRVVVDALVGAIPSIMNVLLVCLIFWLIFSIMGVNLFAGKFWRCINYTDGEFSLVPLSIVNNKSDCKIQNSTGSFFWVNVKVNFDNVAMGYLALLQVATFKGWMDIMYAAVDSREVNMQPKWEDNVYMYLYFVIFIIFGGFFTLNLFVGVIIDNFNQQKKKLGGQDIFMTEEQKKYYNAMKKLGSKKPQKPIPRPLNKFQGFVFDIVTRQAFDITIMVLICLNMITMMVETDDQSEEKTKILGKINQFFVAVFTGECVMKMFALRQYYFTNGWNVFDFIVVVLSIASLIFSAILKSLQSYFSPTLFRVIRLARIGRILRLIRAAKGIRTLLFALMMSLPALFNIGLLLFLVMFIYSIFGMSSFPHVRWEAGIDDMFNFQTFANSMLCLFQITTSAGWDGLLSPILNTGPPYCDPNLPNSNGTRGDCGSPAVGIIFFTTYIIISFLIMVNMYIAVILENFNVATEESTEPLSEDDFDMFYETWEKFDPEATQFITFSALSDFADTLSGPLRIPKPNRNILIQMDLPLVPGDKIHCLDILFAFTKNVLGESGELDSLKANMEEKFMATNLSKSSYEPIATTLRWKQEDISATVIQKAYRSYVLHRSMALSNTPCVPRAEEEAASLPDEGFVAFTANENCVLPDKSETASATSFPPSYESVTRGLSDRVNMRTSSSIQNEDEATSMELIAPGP

Molecular target: human Nav1.8 (Homo sapiens (Human), UniProt Q9Y5Y9)
Experiment: E-VIPR optical membrane potential assay with electrical stimulation
Assay type: cell-based
Conditions: HEK cells expressing human Nav1.8
Excerpt: Sodium channels are voltage-dependent proteins that can be activated by inducing membrane voltage changes by applying electric fields. […] The instrument comprises a microtiter plate handler, an optical system for exciting the coumarin dye while simultaneously recording the coumarin and oxonol emissions, a waveform generator, a current- or voltage-controlled amplifier, and a device for inserting electrodes in well. Under integrated computer control, this instrument passes user-programmed electrical stimulus protocols to cells within the wells of the microtiter plate.
24 hours before the assay on E-VIPR, HEK cells expressing human Nav1.8 were seeded in 384-well poly-lysine coated plates at 15,000-20,000 cells per well. […]
7) Read Plate on E-VIPR. […]
Data was analyzed and reported as normalized ratios of emission intensities measured in the 460 nm and 580 nm channels. […]
The data was further reduced by calculating the initial (Ri) and final (Rf) ratios. […] The response to the stimulus R=Rf/Ri was then calculated and reported as a function of time.
Control responses were obtained by performing assays in the presence of a compound with the desired properties (positive control), such as tetracaine, and in the absence of pharmacological agents (negative control). Responses to the negative (N) and positive (P) controls were calculated as above. […]

IC50: 99 nM
Substance: 2-(4-fluoro-2-methylphenoxy)-N-(2-oxo-1,2-dihydropyridin-4-yl)-5-(trifluoromethyl)benzamide [Compound 106]
